Experimental data taken from ChEMBL document CHEMBL3120114, “Synthesis and evaluation of new coumarin derivatives as potential atypical antipsychotics” (Eur J Med Chem, 2014).

Chains of the proteins cited; added tags and fusions are not shown.
UniProt P61169, whole entry: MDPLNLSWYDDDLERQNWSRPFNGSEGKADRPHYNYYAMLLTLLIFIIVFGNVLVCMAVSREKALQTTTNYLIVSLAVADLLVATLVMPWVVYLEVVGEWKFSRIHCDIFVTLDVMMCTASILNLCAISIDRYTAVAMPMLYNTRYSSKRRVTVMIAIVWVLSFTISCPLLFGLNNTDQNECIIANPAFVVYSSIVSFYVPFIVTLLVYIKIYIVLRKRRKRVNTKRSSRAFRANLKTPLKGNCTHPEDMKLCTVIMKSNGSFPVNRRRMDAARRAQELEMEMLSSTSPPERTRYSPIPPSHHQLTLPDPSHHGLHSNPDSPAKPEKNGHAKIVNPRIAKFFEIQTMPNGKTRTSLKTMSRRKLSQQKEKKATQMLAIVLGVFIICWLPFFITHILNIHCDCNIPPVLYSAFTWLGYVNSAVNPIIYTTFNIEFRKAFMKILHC

Biological target: D(2) dopamine receptor (Rattus norvegicus, UniProt P61169)
Assay: Displacement of [3H]spiperone from dopamine D2 receptor in Sprague-Dawley rat striatum homogenate after 30 mins by liquid scintillation counting

- Ki: 522 nM
SMILES: O=c1oc2cc(OCCCCN3CCN(c4nsc5ccccc45)CC3)ccc2c2c1CCC2
